Target: human mGluR5 (Homo sapiens, UniProt P41594)
Assay: Cell-based functional Ca2+ mobilization assay (FDSS), potentiation of glutamate EC20 response
Settings: H10H cell-line (HEK, recombinant human mGluR5); for Emax (%): glutamate EC20, maximum average response at a single concentration, percent of maximal glutamate response; for pEC50: positive allosteric modulation in presence of glutamate EC20, concentration in mol/L
Source text: Human mGluR5a cDNA in pCMV6-XL6 mammalian expression plasmid was purchased from OriGene Technologies, Inc. (catalogue number SC326357) and subcloned into pcDNA3.1(−). Human embryonic kidney (HEK) 293A cells were then transfected with human mGluR5a pcDNA3.1(−) using LipofectAmine2000 (Invitrogen) and monoclones were selected and tested for functional response using a Ca^2+ mobilization assay. Monoclones were named for the species (“H” for human) plus the location on the plate (e.g. “10H”).
HEK cells transfected with the human mGluR5a receptor (H10H or H12H cell line) were plated at 15,000 cells/well in clear-bottomed poly-D-lysine-coated assay plates (BD Falcon) in glutamate-glutamine-free growth medium and incubated overnight at 37° C. and 5% CO2. Cell-lines used were either the H10H or H12H cell-lines expressing the human mGluR5 receptor. The following day, the growth medium was removed and the cells were washed with assay buffer containing 1× Hank's balanced salt solution (Invitrogen, Carlsbad, Calif.), 20 mM HEPES, 2.5 mM probenecid, pH 7.4 and left with 20 μL of this reagent. Following this step, the cells were loaded with calcium indicator dye, fluo-4 AM, to a final concentration of 2 μM and incubated for 40-45 min at 37° C. The dye solution was removed and replaced with assay buffer. Cell plates were held for 10-15 min at room temperature and were then loaded into the Functional Drug Screening System 6000 (FDSS 6000, Hamamatsu, Japan).
After establishment of a fluorescence baseline for about 3 seconds, the compounds of the present invention were added to the cells, and the response in cells was measured. 2.3 minutes later an EC20 concentration of the mGluR5 receptor agonist glutamate was added to the cells, and the response of the cells was measured for about 1.7 minutes. All test compounds were dissolved and diluted to a concentration of 10 mM in 100% DMSO and then serially diluted into assay buffer for a 2× stock solution in 0.6% DMSO; stock compounds were then added to the assay for a final DMSO concentration of 0.3% after the first addition to the assay well. Calcium fluorescence measures were recorded as fold over basal fluorescence; raw data was then normalized to the maximal response to glutamate. Potentiation of the agonist response of the mGluR5 receptor in the present invention was observed as an increase in response to submaximal concentrations of glutamate in the presence of compound compared to the response to glutamate in the absence of compound.
The concentration-response curves of compounds of the present invention, obtained in the presence of EC20 of mGluR5 receptor agonist glutamate to determine positive allosteric modulation, were generated using Microsoft Excel with IDBS XLFit add-ins. The raw data file containing all time points was used as the data source in the analysis template. This was saved by the FDSS as a tab-delimited text file. Data were normalized using a static ratio function (F/F0) for each measurement of the total 350 values per well divided by each well's initial value. Data was then reduced as to peak amplitudes (Max-Initial Min) using a time range that starts approximately 1 second after the glutamate EC20 addition and continues for approximately 40 seconds. This is sufficient time to capture the peak amplitude of the cellular Calcium response. Individual amplitudes were expressed as % EMax by multiplying each amplitude by 100 and then dividing the product by the mean of the amplitudes derived from the glutamate ECMax-treated wells. pEC50 values for test compounds were generated by fitting the normalized values versus the log of the test compound concentration (in mol/L) using a 4 parameter logistic equation where none of the parameters were fixed. Each of the three values collected at each concentration of test compound were weighted evenly. Individual values falling outside the 95% prediction limits of the curve fit were automatically excluded from the fit. […]

Amino acid sequences for entries named in this document (tags omitted). Residues count along the entry.
UniProt P41594, 21-1180 isoform 2 limits assumed: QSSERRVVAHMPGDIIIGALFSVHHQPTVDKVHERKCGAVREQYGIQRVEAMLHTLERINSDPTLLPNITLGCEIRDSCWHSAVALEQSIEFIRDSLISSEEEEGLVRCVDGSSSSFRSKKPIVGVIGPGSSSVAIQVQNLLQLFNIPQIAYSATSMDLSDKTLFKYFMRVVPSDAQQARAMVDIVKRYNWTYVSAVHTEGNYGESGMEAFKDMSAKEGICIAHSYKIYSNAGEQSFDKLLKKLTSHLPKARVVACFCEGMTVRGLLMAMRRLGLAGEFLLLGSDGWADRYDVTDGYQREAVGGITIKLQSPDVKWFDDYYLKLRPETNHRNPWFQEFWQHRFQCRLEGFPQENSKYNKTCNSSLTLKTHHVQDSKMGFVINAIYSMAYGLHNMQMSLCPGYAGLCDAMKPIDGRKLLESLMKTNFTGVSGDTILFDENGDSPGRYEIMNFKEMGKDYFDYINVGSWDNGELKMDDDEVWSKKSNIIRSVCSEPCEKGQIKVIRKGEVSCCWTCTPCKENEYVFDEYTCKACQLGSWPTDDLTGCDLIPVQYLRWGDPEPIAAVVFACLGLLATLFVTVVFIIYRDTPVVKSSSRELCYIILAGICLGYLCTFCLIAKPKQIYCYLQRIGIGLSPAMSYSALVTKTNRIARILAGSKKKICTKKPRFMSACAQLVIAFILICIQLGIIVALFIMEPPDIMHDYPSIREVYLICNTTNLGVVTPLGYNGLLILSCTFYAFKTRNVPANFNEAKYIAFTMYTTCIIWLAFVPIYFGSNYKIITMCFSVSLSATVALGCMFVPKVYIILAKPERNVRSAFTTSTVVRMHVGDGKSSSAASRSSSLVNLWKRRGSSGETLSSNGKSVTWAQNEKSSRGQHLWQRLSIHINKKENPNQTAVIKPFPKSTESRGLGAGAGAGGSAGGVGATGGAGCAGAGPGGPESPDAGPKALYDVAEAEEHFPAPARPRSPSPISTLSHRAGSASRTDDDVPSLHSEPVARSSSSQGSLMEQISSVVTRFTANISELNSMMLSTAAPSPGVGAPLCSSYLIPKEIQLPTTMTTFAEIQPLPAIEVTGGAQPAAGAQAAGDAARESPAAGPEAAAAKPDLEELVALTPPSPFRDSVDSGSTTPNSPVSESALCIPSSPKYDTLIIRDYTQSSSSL

Structure (SMILES)	Emax (%)	pEC50
C[C@@H]1Cn2nc(COc3ccccc3)cc2C(=O)N1Cc1ccccc1	75.5	7.07
C[C@@H](c1ccccc1)N1CCn2nc(COc3ccccc3)cc2C1=O	53	6.65
CC1CN(Cc2ccccc2)C(=O)c2cc(COc3ccccn3)nn21 (single isomer, unassigned)	59	6.51
CC(c1ccncc1)N1CCn2nc(COc3ccccc3)cc2C1=O (stereo not shown)	59	5.74
Cc1ccnc(CN2CCn3nc(COc4ccccc4)cc3C2=O)c1	69	6.00
CC(c1ccccn1)N1CCn2nc(COc3ccccc3)cc2C1=O (stereo not shown)	58	5.79
COc1nccnc1CN1CCn2nc(COc3ccccc3)cc2C1=O	75.5	6.56
Cc1noc(C)c1CN1CCn2nc(COc3ccccc3)cc2C1=O	55	5.68
CC1CN(Cc2ccccc2)C(=O)c2cc(COc3ccccc3)nn21 (single isomer, unassigned) [Example B14]	57	6.94
COc1nccc(CN2CCn3nc(COc4ccccc4)cc3C2=O)n1	65.5	6.01
COc1ccnc(CN2CCn3nc(COc4ccccc4)cc3C2=O)n1	64.5	

More lines, now with the values ahead:

Emax (%)	pEC50	Structure (SMILES)
68	6.99	O=C1c2cc(COc3ccccc3)nn2CCN1Cc1cc(F)cc(F)c1
64	6.89	O=C1c2cc(COc3ccccc3)nn2CCN1Cc1c(F)cccc1F
68.5		COc1ccc(CN2CCn3nc(COc4ccccc4)cc3C2=O)cc1F
73.5	6.27	Cc1cccnc1CN1CCn2nc(COc3ccccc3)cc2C1=O
41	6.45	C[C@@H](c1ccc(F)cc1)N1CCn2nc(COc3ccccc3)cc2C1=O
66.5		CC1CN(Cc2ccccc2)C(=O)c2cc(COc3ccc(F)cc3)nn21 (single isomer, unassigned) [Example B54]
64	6.96	O=C1c2cc(COc3ccc(F)cc3)nn2CCN1Cc1ccccc1
42		Cc1cccc(OCc2cc3n(n2)CCN(Cc2ccccc2)C3=O)c1
73	7.03	O=C1c2cc(COc3ccccc3)nn2CCN1Cc1ccc(F)cc1
71.5	6.76	COc1cc(F)cc(CN2CCn3nc(COc4ccccc4)cc3C2=O)c1
73	6.89	C[C@@H]1Cn2nc(COc3ccc(F)cc3)cc2C(=O)N1Cc1ccccc1

Source: patent US20130345205A1, “SUBSTITUTED BICYCLIC ARALKYL PYRAZOLE LACTAM ANALOGS AS ALLOSTERIC MODULATORS OF MGLUR5 RECEPTORS” (Vanderbilt University, priority 2012, published 2013)
